EC50 data for 9 molecules are collected here from US20230348426A1, “OXOPYRROLIDINE FPR2 AGONISTS” (Bristol-Myers Squibb Company, priority 2020, published 2023).

Protein sequences, listed by entry. Tags and fused reporters are not part of them.
UniProt P25090, whole entry: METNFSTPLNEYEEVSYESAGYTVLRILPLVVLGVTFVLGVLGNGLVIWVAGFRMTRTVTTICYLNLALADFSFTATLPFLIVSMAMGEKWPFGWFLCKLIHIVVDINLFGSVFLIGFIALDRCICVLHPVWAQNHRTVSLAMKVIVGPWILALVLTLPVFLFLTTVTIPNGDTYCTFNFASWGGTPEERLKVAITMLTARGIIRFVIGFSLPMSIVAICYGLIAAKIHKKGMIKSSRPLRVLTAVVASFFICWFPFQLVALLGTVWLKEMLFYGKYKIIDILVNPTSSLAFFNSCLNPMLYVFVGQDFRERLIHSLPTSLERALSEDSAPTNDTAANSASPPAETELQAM
UniProt P21462, whole entry: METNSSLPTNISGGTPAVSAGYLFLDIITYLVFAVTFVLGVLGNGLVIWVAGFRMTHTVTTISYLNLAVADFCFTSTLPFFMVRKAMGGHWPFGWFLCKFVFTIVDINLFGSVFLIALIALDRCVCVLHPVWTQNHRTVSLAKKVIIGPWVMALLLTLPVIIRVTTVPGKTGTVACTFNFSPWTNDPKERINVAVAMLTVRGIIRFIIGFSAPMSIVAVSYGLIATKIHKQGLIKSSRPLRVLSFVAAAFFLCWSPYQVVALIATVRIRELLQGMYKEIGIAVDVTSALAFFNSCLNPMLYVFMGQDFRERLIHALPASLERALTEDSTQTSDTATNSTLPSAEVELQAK

The target of one assay is human FPR2 (Homo sapiens (Human), UniProt P25090). In words: FPR2 cyclic adenosine monophosphate (cAMP) assay. Particulars: read-out: hFPR2 cAMP2 EC50; CHO cells overexpressing human FPR2; forskolin 5 µM; inhibition of cAMP production.
The target of a further assay is human FPR1 (Homo sapiens (Human), UniProt P21462). The assay can be described thus: FPR1 cyclic adenosine monophosphate (cAMP) assay. Particulars: read-out: hFPR1 cAMP EC50; CHO cells overexpressing human FPR1; forskolin 10 µM; inhibition of cAMP production. For orientation: Changes in cAMP serve as a functional read-out for many G protein-coupled receptors.

On to `COc1cc(C2CCN(CCO)CC2)nc(N2C[C@@H](c3c(F)cc(OC)cc3F)[C@H](NC(=O)c3ccc(OC(F)F)cc3)C2=O)c1`, for which the values for the EC50 at human FPR2 and on human FPR1 were 2.7 nM and over 5000 nM, respectively.
For `COCC(C(=O)N(C)C)n1ccc(C)c(N2C[C@@H](c3ccc(OC)cc3)[C@H](NC(=O)c3ccc(OC(F)(F)F)cc3)C2=O)c1=O` (stereo partly drawn), the values for the concentration giving a half-maximal response (EC50) on human FPR2 and on human FPR1 were 3.8 nM and 0.1 nM, respectively.
The matching figures for `COc1cc(F)c([C@@H]2CN(c3cccc(OCCO)n3)C(=O)[C@H]2NC(=O)c2ccc(OC(F)F)cc2)c(F)c1`: 1.6 nM and 750 nM.
Regarding `COc1cc(F)c([C@H]2[C@H](NC(=O)c3ccc(OC(F)(F)F)cc3)C(=O)N(c3cccn(CCO)c3=O)[C@@H]2C)c(F)c1`, the EC50 on human FPR2 is 7.5 nM; on human FPR1, 370 nM.
The matching figures for `COc1cc(F)c([C@@H]2CN(c3cccn(CC4CC4)c3=O)C(=O)[C@H]2NC(=O)c2ccc(OC(F)F)cc2)c(F)c1`: 6.2 nM and 13 nM.
The matching figures for `CCn1cccc(N2C[C@@H](c3ccc(Cl)cc3)[C@H](NC(=O)c3ccc(OC(F)F)cc3)C2=O)c1=O`: 3.9 nM and 7 nM.
The matching figures for `COc1cc(F)c([C@@H]2CN(c3ccnc(N4CCN(C)CC4)c3C#N)C(=O)[C@H]2NC(=O)c2ccc(OC(F)F)cc2)c(F)c1`: 1.8 nM and 500 nM.
Turning to `COc1ccc([C@@H]2CN(c3cccn(CCO)c3=O)C(=O)[C@H]2NC(=O)c2ccc(OC(F)F)cc2)cc1`, the EC50 at human FPR2 worked out at 2 nM; at human FPR1 it was 12 nM.
For the molecule `COc1cc(F)c([C@@H]2CN(c3nccc(N4C[C@@H]5C[C@H]4CN5C)c3C(F)(F)F)C(=O)[C@H]2NC(=O)c2ccc(OC(F)F)cc2)c(F)c1`, the half-maximal effective concentration (EC50) came out at 6.3 nM on human FPR2 and 460 nM on human FPR1.

In general, EC50 refers to the concentration that produces a half-maximal response.
